Antibody variant affinities, Ab-14 heavy chain, assay B

Source: Li et al. 2023 (doi:10.1038/s41467-023-39022-2), MIT Lincoln Laboratory and A-Alpha Bio; data file from the FLAb repository.

Target peptide (SARS-CoV-2 spike, HR2 region): PDVDLGDISGINAS

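These sequences belong to a second round, designed from the earlier measurements on random variants of the parent. Group labels follow the data file (Ctrl: baseline library sampled from a position-specific scoring matrix, with some repeated check sequences; Rand: our label for a block that the file lists under HC and that is probably the random mutants of the ten best first-round binders; En: ensemble of fine-tuned language models; GP: Gaussian process model; GPLM: also part of the Gaussian process libraries; HC: hill climbing; Gen: genetic algorithm; Gibbs: Gibbs sampling; a sequence that several methods proposed may carry one label only). AlphaSeq pools MATa yeast showing the antibodies with MATalpha yeast showing the peptide. Mating (16 h, 30 °C) was followed by selection of diploids and sequencing of their barcodes. The ratio of observed to expected reads was calibrated, replicate by replicate, on BCL2-family standards whose Kd was known from biolayer interferometry. There are six technical replicates.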

Each scFv is VH, the linker GGGGSGGGGSGGGGS, VL, as in the parent Ab-14, and differs from it in the CDRs of the heavy chain only.
VH: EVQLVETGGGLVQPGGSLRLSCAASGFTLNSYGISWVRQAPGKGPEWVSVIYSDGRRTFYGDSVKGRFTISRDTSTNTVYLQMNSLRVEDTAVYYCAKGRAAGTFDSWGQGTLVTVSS
VL: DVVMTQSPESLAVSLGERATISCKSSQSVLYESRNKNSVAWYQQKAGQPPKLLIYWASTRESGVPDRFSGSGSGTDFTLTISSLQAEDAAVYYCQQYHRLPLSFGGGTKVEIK

Variants are written as CDR1, CDR2 and CDR3 of the heavy chain (limits as in the source). Parent: GFTLNSYGIS, VIYSDGRRTFYGDSVK, GRAAGTFDS. Values are log10 of the apparent Kd in nM; lower means stronger binding. Replicates are averaged; those with no signal do not enter the mean. An entry "n.d." has no value in the source: the pair was not observed among the diploids in that replicate. This suggests poor binding but is not conclusive. Order: sorted from the lowest average up, undetected variants last. A sequence that the file lists under several names has all its replicates listed entry by entry, parted by semicolons. Of ten entries with the parent sequence, four were seen in most replicates (averages 0.34 to 2.37), three in one and three in none, so single entries are noisy. Three control strains display no target. For all heavy chain designs, 1% of the pairings with them gave a signal, with a median of 2.08 and one signal in twenty below 0.84, so weak values seen in few replicates may be background. In the paper, a design with two or fewer of six values counts as a poor binder. The range of this assay differs from that of the first round, and the authors advise against merging the two.

log10 Kd, replicates	log10 Kd (nM), mean	CDR-H1	CDR-H2	CDR-H3	group
-0.61 -0.30 -0.47 -0.69 -0.52 -0.52	-0.52	GFDLNEYGIS	VIYADGRRTAYSDSVK	GEIAGTFDE	En_HC
-0.34 -0.58 -0.05 -0.34 -0.46 -0.24	-0.34	GFDLNSYGIS	VIYSDGRRTAYGDNVK	GRTAGTFDS	GP_Gibbs
-0.42 -0.24 -0.61 0.06 0.04 -0.31	-0.25	GFDLDEYGIS	VIYADGMRTAYADNVK	GNNAGTFDI	En_Gen
-0.21 -0.23 -0.33 0.05 -0.33 0.10	-0.16	GFDLNEYGIS	VIYADGSRTFYSDSVK	GQSAGTFDA	En_HC
-0.21 0.10 -0.37 -0.25 0.14 -0.19	-0.13	GFDLNEYGIS	VIYADGLRTAYTDSVK	GNNAGTFDV	En_Gen
0.27 0.22 0.32 0.11 0.07 0.06	0.18	GFDLNEYGIS	VIYADGERTFYTDSVK	GEVAGTFDS	En_HC
0.35 0.15 0.16 0.37 0.10 0.33	0.25	GFDLNEYGIS	VIYADGSRTAYTDSVK	GEVAGTFDV	En_Gen
0.50 -0.09 0.17 0.27 0.32 0.41	0.26	GFDLNEYGIS	VIYADGLRTSYDDSVK	GQNAGTFDQ	En_HC
0.86 0.21 0.39 0.24 0.21 0.12	0.34	GFLLNEYGIS	VIYSDGRRTFYGDSVK	GRTAGTFDS	GPLM_Gen
0.49 0.93 0.13 -0.16 0.75 0.31	0.41	GFTLESYGIS	VIYSDGRRTFYADSVK	GRLAGTFDS	GPLM_Gen
0.95 n.d. 0.22 -0.05 0.94 0.09	0.43	GFSLNEYGIS	VIYSDGRRTFYCDSVK	GHAAGTFDR	GP_HC
0.45 -0.25 0.09 0.84 1.64 0.32	0.51	GFVLNDYGIS	VIYSDGRRTFYGDSVK	GKTAGTFDS	GP_Gibbs
1.05 0.76 -0.42 0.29 0.65 0.78	0.52	GFSLNEYGIS	VIYSDGRRTMYGDSVK	GRAAGTFDT	GP_Gibbs
1.18 0.69 1.04 0.46 0.73 1.01	0.85	GFSLNEYGIS	VIYSDGKRTFYIDSVK	GRAAGTFDS	GPLM_Gibbs
n.d. n.d. 1.23 0.48 n.d. 1.34	1.02	GFWLNDYGIS	VIYSDGRRTFYHDSVK	GRTAGTFDA	GP_Gibbs
n.d. 0.87 1.10 0.28 2.26 n.d.	1.13	GETLNEYGIS	VIYSDGRRTFYGDSVK	GRTAGTFDT	GP_Gibbs
n.d. n.d. 0.74 0.85 n.d. n.d.; n.d. n.d. 2.02 n.d. n.d. 2.39	1.50	GFTLNSYGIS	VIYSDGKRTFYIDSVK	GRAAGTFDS	Ctrl+GPLM_Gibbs
n.d. n.d. n.d. n.d. 2.01 1.01	1.51	GFSLNSYGIS	VIYSDGRRTFYGDNVK	GRTAGTFDS	GPLM_Gen
1.86 1.57 0.94 0.71 4.38 1.82	1.88	GETLNSYGIS	VIYADGRRTFYSDSVK	GQAAGTFDS	GP_HC
n.d. n.d. n.d. n.d. 1.93 n.d.	1.93	GFDLNEYGVS	VIYADGQRTYYTESVK	GKFGDLLMA	En_Gibbs
n.d. n.d. n.d. n.d. n.d. n.d.	n.d.	GQDLQEYGVS	VIYADGMRTAYADSFK	GKSLGNIVQ	En_Gibbs
n.d. n.d. n.d. n.d. n.d. n.d.	n.d.	GFTLNEYGIS	VIYSDGRRTFYGDSVK	GRMAGTFDM	GP_HC
n.d. n.d. n.d. n.d. n.d. n.d.	n.d.	GFDLNEQGIS	VIYADGVRTEYQNRVK	GQIDGLFTF	En_Gibbs
n.d. n.d. n.d. n.d. n.d. n.d.	n.d.	GFDLNSYGIS	VIYSDGCRTFYTDSVK	GRAAVTFDS	GP_HC
n.d. n.d. n.d. n.d. n.d. n.d.	n.d.	GFSLNEYGIS	VIYSDGRRAFYGDSVK	GRAAAHFDS	Ctrl
n.d. n.d. n.d. n.d. n.d. n.d.	n.d.	GFTLNEYGIS	VIYSDGRRTFYIDSVK	GRAAGTFTS	GP_HC
n.d. n.d. n.d. n.d. n.d. n.d.	n.d.	GFTLNSYGVS	VIYSDGRRTFYGDSVK	GEQADTFDS	Ctrl
n.d. n.d. n.d. n.d. n.d. n.d.	n.d.	GFTVNSYGIS	VIYSDGRRTFYGDSVK	GRAAGFFDS	Ctrl
n.d. n.d. n.d. n.d. n.d. n.d.	n.d.	GFTLDSYGIS	VIYSDGTRTWYGDSVK	GRAAGTALM	Rand
n.d. n.d. n.d. n.d. n.d. n.d.	n.d.	GFNLNSYGIS	VIYSDGRRTHYGDSVK	GFAAGQFDS	Ctrl
n.d. n.d. n.d. n.d. n.d. n.d.	n.d.	GFTLNSYGIS	VIYSDGRRTFYGDSVK	GREAGFFDS	Ctrl
n.d. n.d. n.d. n.d. n.d. n.d.	n.d.	GFTINSYGIS	VIYSDGRRTFYNGSVK	GKAAGTIDS	Ctrl
n.d. n.d. n.d. n.d. n.d. n.d.	n.d.	GFDLGEYGIS	VIYADGSRSAYATNVK	GGSGYKDGV	En_Gibbs
n.d. n.d. n.d. n.d. n.d. n.d.	n.d.	GFDLNEYGIS	VIYADGVRTAYSDSVK	GEVAGTFDL	En_Gen
n.d. n.d. n.d. n.d. n.d. n.d.	n.d.	TFKLNSYGIS	VIYSDGRRTFYGDSTK	GRDAGTFDW	Ctrl